The entries are a selection whose mix differs from that of the whole data set. Active and inactive are the calls of the source. No stated cut-off is given here; in the data, active means inhibition above about 45%; inactive means the rest.

Amino acid sequences for entries named in this document (tags omitted).
UniProt O95136, whole entry: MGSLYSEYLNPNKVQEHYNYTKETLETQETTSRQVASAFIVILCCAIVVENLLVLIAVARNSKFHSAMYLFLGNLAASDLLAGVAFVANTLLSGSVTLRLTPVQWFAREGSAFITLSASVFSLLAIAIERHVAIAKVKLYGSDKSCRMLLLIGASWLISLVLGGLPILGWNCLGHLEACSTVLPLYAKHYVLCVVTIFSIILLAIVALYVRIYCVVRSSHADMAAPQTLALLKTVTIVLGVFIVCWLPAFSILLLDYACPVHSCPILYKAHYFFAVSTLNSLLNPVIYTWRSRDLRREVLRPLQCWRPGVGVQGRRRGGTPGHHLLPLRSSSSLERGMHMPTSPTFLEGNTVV

In the experiment the target is Sphingosine 1-phosphate receptor 2 (Homo sapiens) (UniProt O95136). The experiment is described as follows: blockers of S1P2 receptor signalling – cell-based, primary screen (AID 736).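 Further: CRE beta-lactamase reporter cells expressing human S1P2 stimulated with S1P; 0% = agonist at EC80 alone and 100% = agonist plus reference antagonist.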 Conditions: cell-based S1P2 antagonist assay, at 5 µM, active compounds read high.
As a reminder, the inhibition is the drop in the measured response relative to a control, in per cent. Turning to `CP(=O)(OC12CC3CC(CC(C3)C1)C2)OC12CC3CC(CC(C3)C1)C2`, the inhibition is inactive: -15.9%.

Turning to `CCN(CC)CC(O)COC(=O)C(O)(c1ccccc1)C1CCCCC1` (stereo not given), the inhibition was inactive: 5.32%.

With `CP(=O)(Oc1ccccc1)N1CCOC1=O` (stereo not given), the inhibition is inactive: -11%.

As for `COc1ccccc1OP(C)(=O)Nc1c(C)n(C)n(-c2ccccc2)c1=O` (stereo not given), the inhibition was inactive: 13.3%.

Turning to `CP(=O)(Nc1ccc(Cl)cc1)Oc1ccc(F)cc1` (stereo not given), the inhibition was inactive: -6.55%.

Regarding `CC(C)(C)c1ccc(OP(C)(=O)O)cc1`, the inhibition is inactive: 4.17%.

Take `CN(C)CCOC(=O)C(O)(c1ccccc1)C1CCCC1` (stereo not given): the inhibition is inactive: -14.5%.

For `COc1ccc(OP(C)(=O)Nc2ccccn2)cc1` (stereo not given), the inhibition was inactive: -1.93%.

For `Cc1c(NP(C)(=O)Oc2ccc(C(C)C)cc2)c(=O)n(-c2ccccc2)n1C` (stereo not given), the inhibition was inactive: -3.13%.

As to `CCc1ccc(OP(C)(=O)O)cc1`, the inhibition was inactive: -11.8%.

For `CP(=O)(Nc1ccccn1)Oc1ccccc1` (stereo not given), the inhibition is inactive: 3.69%.

As to `COc1ccccc1OP(C)(=O)Nc1ccc(C)cc1C` (stereo not given), the inhibition is inactive: -2.26%.

In the case of `COc1ccccc1OP(C)(=O)Nc1ccc(C)c(C)c1` (stereo not given), the inhibition was inactive: 6.71%.

Take `Cc1nc2ccc3ccccc3c2o1.O=[N+]([O-])c1cc([N+](=O)[O-])c(O)c([N+](=O)[O-])c1`: the inhibition is inactive: -1.88%.

With `CCN(CC)CCCOC(=O)C(O)(c1ccccc1)C1CCCCC1` (stereo not given), the inhibition is inactive: -1.57%.

Consider `CP(=O)(Nc1ccccc1)Oc1ccc(F)cc1` (stereo not given), for which the inhibition was inactive: 7.17%.

`CP(=O)(Nc1ccccc1F)Oc1ccccc1` (stereo not given): the inhibition was inactive: -8.71%.

With `CCOP(C)(=S)SCC(=O)NC(C)(CC)C(=O)O` (stereo not given), the inhibition is inactive: 0.5%.

In the case of `CP(=O)(Nc1ccc2c(c1)OCCO2)Oc1ccccc1` (stereo not given), the inhibition was inactive: -12.7%.

As for `COc1ccc(OP(C)(=O)Nc2cccc(Br)c2)cc1` (stereo not given), the inhibition is inactive: 1.37%.

`CN(C)CCOC(=O)C(O)(c1ccccc1)C1CCCCC1` (stereo not given): the inhibition is inactive: 7.79%.

With `COc1ccccc1OP(C)(=O)Nc1c(C)cccc1C` (stereo not given), the inhibition is inactive: -16.9%.

Regarding `Cc1nc2ccc3ccccc3c2s1.O=[N+]([O-])c1cc([N+](=O)[O-])c(O)c([N+](=O)[O-])c1`, the inhibition was inactive: 3.51%.

Consider `Cc1cc(C)cc(OP(C)(=O)Nc2ccc(C)cc2C)c1` (stereo not given), for which the inhibition was inactive: 21.3%.

Regarding `Cc1cc(C)cc(OP(C)(=O)Nc2ccccn2)c1` (stereo not given), the inhibition was inactive: 5.57%.

Take `Cc1ccc(C)c(NP(C)(=O)Oc2ccccc2)c1` (stereo not given): the inhibition was inactive: 18.2%.

`COc1ccc(OP(C)(=O)Nc2cccc(F)c2)cc1` (stereo not given): the inhibition was inactive: -12.6%.

Regarding `CP(=O)(NC(=O)Nc1ccccc1)Oc1ccccc1` (stereo not given), the inhibition is inactive: -11.2%.

With `CP(=O)(Nc1ccccn1)Oc1ccc(Cl)cc1` (stereo not given), the inhibition is inactive: -11.1%.

As for `CP(=S)(Nn1cnnc1)Oc1ccccc1` (stereo not given), the inhibition is inactive: -4.18%.
